pKi: −log10 of the molar value.
Target: Prothrombin (Homo sapiens, UniProt P00734)
Experiment: In vitro inhibitory activity against thrombin

## NC(N)=NCCCC(NC(=O)[C@@H]1CCCN1C(=O)C(N)Cc1cccc2ccccc12)C(=O)CCC(=O)N1CCCCC1 (stereo partly specified)
  pKi: 4.87

From ChEMBL document CHEMBL1126118, “Synthesis and biological activity of ketomethylene pseudopeptide analogues as thrombin inhibitors” (J Med Chem, 1992)
